Amino acid sequences for entries named in this document (tags omitted).
UniProt P03372, whole entry: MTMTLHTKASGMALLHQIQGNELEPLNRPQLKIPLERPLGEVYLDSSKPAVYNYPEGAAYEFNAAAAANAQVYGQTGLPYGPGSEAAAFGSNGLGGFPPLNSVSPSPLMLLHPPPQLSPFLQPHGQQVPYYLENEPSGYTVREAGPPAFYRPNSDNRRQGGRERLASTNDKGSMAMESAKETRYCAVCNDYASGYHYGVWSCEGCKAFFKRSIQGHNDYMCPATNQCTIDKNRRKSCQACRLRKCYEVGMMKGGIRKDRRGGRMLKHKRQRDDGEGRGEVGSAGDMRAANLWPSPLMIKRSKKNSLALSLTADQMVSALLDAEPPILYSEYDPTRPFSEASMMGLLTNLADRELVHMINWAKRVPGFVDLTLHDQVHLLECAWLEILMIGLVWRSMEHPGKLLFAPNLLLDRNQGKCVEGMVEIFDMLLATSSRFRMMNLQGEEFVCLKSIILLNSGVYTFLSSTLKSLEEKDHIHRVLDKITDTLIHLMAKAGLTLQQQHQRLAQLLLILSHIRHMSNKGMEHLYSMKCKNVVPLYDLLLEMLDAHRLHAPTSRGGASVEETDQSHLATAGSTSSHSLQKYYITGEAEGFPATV

According to patent US10058534B2, “Benzothiophene derivatives and compositions thereof as selective estrogen receptor degraders” (NOVARTIS AG, priority 2013, dated 2018):

Biological target: ERα (Homo sapiens (Human), UniProt P03372)
Assay: ERα degradation (MCF7 cells), in-cell Western
Assay type: cell-based
Conditions: inflection point of the degradation in response to ligand concentration

| Compound | pIC50 |
| --- | --- |
| Cc1cc(F)ccc1-c1sc2cc(O)ccc2c1Oc1ccc(/C=C/c2nnc(C)n2C)cc1 [Example 106, (E)-3-(4-(2-(4,5-dimethyl-4H-1,2,4-triazol-3-yl)vinyl)phenoxy)-2-(4-fluoro-2-methylphenyl)benzo[b] thiophen-6-ol] | 8.39 |
| CCc1cccc(CC)c1-c1sc2cc(O)ccc2c1Oc1ccc(/C=C/C(=O)O)cc1 [Example 130, (E)-3-(4-((2-(2,6-diethylphenyl)-6-hydroxybenzo[b]thiophen-3-yl)oxy)phenyl)acrylic acid] | 8.29 |

pIC50: −log10 of the molar value.
